This data set is described as follows: Solubility in water of solid particulate material (descriptive). It counts as physicochemical. As to conditions: description in composition table.

Solubility data for 1 substance are collected here from US20250339374A1, “BONDED MICROPARTICULATES PREPARATION AND APPLICATIONS THEREOF” (Venkor Corporation, priority 2022, published 2025).

With Zinc Gluconate, the Solubility result is “Solubility- soluble in water”.
